Our source for the IC50 values is patent publication US9643919B2, “Cycloalkyl-dione derivatives and methods of their use” (The Trustees of The University of Pennsylvania, priority 2013, dated 2017).

Some results are limits rather than exact numbers.

The first experiment addresses T1, human TP receptor (Homo sapiens, UniProt P21731).
T1 construct: expressed in transfected cells
T1 sequence (P21731 1-343): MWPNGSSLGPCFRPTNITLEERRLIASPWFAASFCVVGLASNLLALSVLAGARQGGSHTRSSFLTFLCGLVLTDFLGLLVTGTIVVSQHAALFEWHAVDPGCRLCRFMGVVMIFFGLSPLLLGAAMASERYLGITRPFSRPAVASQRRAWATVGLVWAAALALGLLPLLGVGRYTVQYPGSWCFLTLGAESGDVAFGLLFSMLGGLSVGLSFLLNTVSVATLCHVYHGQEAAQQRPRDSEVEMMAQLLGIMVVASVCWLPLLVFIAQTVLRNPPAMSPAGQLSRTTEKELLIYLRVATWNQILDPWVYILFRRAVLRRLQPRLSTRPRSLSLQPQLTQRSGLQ
The experiment can be described thus: IP-One functional assay (HTRF), human TP receptor antagonism. It counts as cell-based. As to conditions: IPOne assay; QBI-HEK 293A cells stably transfected with human TP receptor; agonist I-BOP 0.2 or 0.8 nM.
As usually defined, the IC50 is the midpoint of a concentration-inhibition curve. `O=C(O)CCc1cccc2c1CCC(NS(=O)(=O)c1ccc(Cl)cc1)C2` (stereo not shown) [Cpd 51280, reference compound] showed an IC50 of 15.7 nM.

The target of the next experiment is T2, mouse TP receptor (Mus musculus, UniProt P30987).
T2 sequence (P30987 1-341): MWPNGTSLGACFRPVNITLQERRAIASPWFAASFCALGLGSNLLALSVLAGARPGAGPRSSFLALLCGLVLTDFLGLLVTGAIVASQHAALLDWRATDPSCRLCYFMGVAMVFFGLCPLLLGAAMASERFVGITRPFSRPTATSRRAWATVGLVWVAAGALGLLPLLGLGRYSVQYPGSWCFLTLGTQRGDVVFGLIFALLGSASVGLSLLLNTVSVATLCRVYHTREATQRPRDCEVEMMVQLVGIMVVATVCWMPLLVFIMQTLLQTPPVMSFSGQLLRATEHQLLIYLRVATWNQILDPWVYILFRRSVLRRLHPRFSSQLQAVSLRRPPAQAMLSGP
Put plainly: IP-One functional assay (HTRF), mouse TP receptor antagonism.
Conditions: not given
On the technique in general: TR-FRET usually uses a lanthanide donor and a delayed reading to cut background.
In turn, `Cc1cccc(C)c1C1=C(O)CC(Cc2cccc3c2CCC(NS(=O)(=O)c2ccc(Cl)cc2)C3)C1=O` (stereo not shown) [Cpd 51580] had a half-inhibitory concentration (IC50) of under 10 nM. For the compound `O=C1C(c2ccc(F)cc2)=C(O)CC1Cc1cccc2c1CCC(NS(=O)(=O)c1ccc(Cl)cc1)C2` (stereo not shown) [Cpd 51574], the IC50 is under 10 nM. Regarding `COc1ccc(C2=C(O)CC(Cc3cccc4c3CCC(NS(=O)(=O)c3ccc(Cl)cc3)C4)C2=O)cc1` (stereo not shown) [Cpd 51575], the IC50 was under 10 nM.

Consider `CC1=C(O)CC(Cc2cccc3c2CCC(NS(=O)(=O)c2ccc(Cl)cc2)C3)C1=O` (stereo not shown) [Cpd 51559], for which the IC50 was under 10 nM.

In turn, `O=C1C(c2ccccc2)=C(O)CC1Cc1cccc2c1CCC(NS(=O)(=O)c1ccc(Cl)cc1)C2` (stereo not shown) [Cpd 51548] gave an IC50 of under 10 nM.

`O=C(O)CCc1cccc2c1CCC(NS(=O)(=O)c1ccc(Cl)cc1)C2` (stereo not shown) [Cpd 51280, reference compound] gave an IC50 of under 10 nM.
